The values that follow are results of earlier work, collected in US20260207713A1, “Drug Combination Kit for Controlling Blood Sugar” (Ningbo Y Biotechology lnc., priority 2023, published 2026).

For the series the following is noted: ranks first among the top ten drugs causing adverse events; cited from earlier work.

With insulin, the “Incidence rate of adverse events” value is on record as 8%.
